Results: PubChem BioAssay AID504834 (National Center for Advancing Translational Sciences (NCATS), 2011)
Only a part is listed here, and it is no random draw. Results filed as inconclusive are left out. Active and inactive are the calls of the source. The call rests on the fitted dose curve; in most records, active means well fitted inhibition curve with a large enough effect; inconclusive means small, poorly fitted or top-dose-only effect, or another doubt; inactive means no such curve, though single readings can be large or run the other way.

Assay: Primary qHTS for delayed death inhibitors of the malarial parasite plastid, 96 hour incubation
Conditions: P. falciparum luciferase reporter growth
Excerpt: The goal of this screen is to discover new antimalarial compounds that act by inhibiting the development of the apicoplast in the malarial parasite Plasmodium falciparum. The biochemical processes that make this organelle essential for erythrocytic stage parasites are not well understood. However, antibiotics such as azithromycin and tetracycline, which target the apicoplast translational machinery, have a potent antimalarial effect.
We have developed a cell-based assay that measures parasite growth based on the expression of an integrated copy of a firefly luciferase reporter. To detect small molecules that cause this "delayed death" phenotype, erythrocytes infected with the luciferase-expressing parasites were incubated with compounds for either one or two generations, corresponding to 48 and 96 hours, respectively. Compounds that inhibit parasite growth in the second generation, but not the first, should be enriched in antimalarials that target the apicoplast. Growth inhibition is detected by a decrease in luciferase activity. […]
Four microliters of infected erythrocytes (2% hematocrit, 0.05% parasitemia final concentration) in culture medium were dispensed and the plates incubated for 96 hours at 37 C in 5% CO2. Two microliters of luciferase detection reagent was added and luminescence was detected by a ViewLux (PerkinElmer) reader.
Potency means the concentration at half of the fitted maximal effect.

| Compound | Potency |
| --- | --- |
| COc1ccc(C[C@H](C)NC[C@@H](O)c2ccc(O)c(NC=O)c2)cc1 | active: 10.7 µM |
